Results on 1 compound are retold here after US9201062B2, “Predicting toxicity of a compound over a range of concentrations” (CELLOMICS, INC., priority 2011, dated 2015).

The subject of the data set is Reactive oxygen species (ROS) levels in cells. Put plainly: Normalized ROS response over a range of concentrations compared with toxicity thresholds (FIGS. 6A, 6B). The settings on record: range of concentrations up to 100 CMax; threshold = μ±(4×σ) of negative controls. An excerpt: Once imaging has been performed, automated image processing algorithms as are known in the art can be used in the imaging system to determine the measurements in the cell images.
The target i being evaluated was the normalized ROS response.
where μ is the mean of the normalized non-hepatotoxic compound values and σ is the standard deviation of the normalized non-hepatotoxic compound values.
As noted above, for ROS, the upper threshold may be all that is needed. […] The difficulty in compound toxicity measurement because of non-unidirectional response and/or because of incorrect EC50/IC50 calculation from a dose-response curve are avoided by establishing toxicity thresholds based on the negative controls and by flagging a compound as toxic only if its response goes beyond the determined thresholds at any concentration.
For each target, the minimal coefficient K of the deviation value from the mean of the non-hepatotoxic compound data can be calculated to include all the non-hepatotoxic compounds values between μ+K×σ and μ−K×σ values. These values are set respectively as the upper and lower toxicity thresholds for the target. […]
The normalized values from the hepatotoxic compounds (or compounds of interest) are compared with the threshold value determined above. The compound toxicity is determined by verifying whether the normalized value of the compound is outside the threshold value(s). […]

For `CN(CCOc1ccc(CC2SC(=O)NC2=O)cc1)c1ccccn1` (stereo not shown) [Rosiglitazone], the “normalized ROS response relative to upper and lower toxicity thresholds” value is “between the upper and lower thresholds values”.
